Measured values as given in patent publication US20260078130A1, “NAMPT MODULATORS, PREPARATIONS, AND USES THEREOF” (SIRONAX LTD., priority 2022, published 2026).

The chains behind the UniProt entries cited, without tags or fusion partners.
UniProt P43490, whole entry: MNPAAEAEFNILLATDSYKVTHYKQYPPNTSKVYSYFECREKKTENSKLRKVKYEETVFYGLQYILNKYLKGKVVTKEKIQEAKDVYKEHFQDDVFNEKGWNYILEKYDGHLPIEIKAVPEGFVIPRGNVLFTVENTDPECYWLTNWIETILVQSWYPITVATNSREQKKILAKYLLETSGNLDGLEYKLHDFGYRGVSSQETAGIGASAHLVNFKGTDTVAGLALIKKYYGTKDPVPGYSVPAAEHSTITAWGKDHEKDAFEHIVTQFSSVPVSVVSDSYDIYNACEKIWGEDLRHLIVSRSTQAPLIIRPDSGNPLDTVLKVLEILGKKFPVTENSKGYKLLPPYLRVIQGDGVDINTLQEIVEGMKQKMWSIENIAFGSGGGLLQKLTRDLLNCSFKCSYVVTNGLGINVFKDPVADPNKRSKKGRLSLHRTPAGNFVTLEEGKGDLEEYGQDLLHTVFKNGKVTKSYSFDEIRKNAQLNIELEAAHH

Molecular target: human enzyme NAMPT (full length) (Homo sapiens, UniProt P43490)
Assay: NMN fluorescence biochemical assay (stimulation of NMN synthesis by NAMPT)

Question: How did the “Enzymatic Emax” value (fold change of maximal activation compared to DMSO) turn out when `O=C1NCC2(CCC(CN3C(=O)c4ccccc4C3Cc3ncccc3Br)CC2)O1` (single isomer, unassigned) was run?
Answer: C (2≥C)

Question: And the EC50 (read-out: Enzymatic EC50, NMN fluorescence assay, purified human NAMPT 100 nM, concentration giving half-maximal activation)?
Answer: 0.5 to 5 µM
